Source: patent publication EP1157024B1, “ACETYLENIC ORTHO-SULFONAMIDO AND PHOSPHINIC ACID AMIDO BICYCLIC HETEROARYL HYDROXAMIC ACIDS AS TACE INHIBITORS” (American Cyanamid Company, priority 1999, dated 2000)

Target: MMP-13 (Homo sapiens, UniProt P45452)
Assay: MMP-13 inhibition (thiopeptide or fluorescent peptide substrate)
Assay type: biochemical

IC50: 80 nM
SMILES: CC#CCOc1ccc(S(=O)(=O)N(C)c2c(C(=O)NO)cnc3c2c(C)nn3C)cc1 [Example 7, 4-[(4-But-2-ynyloxy-benzenesulfonyl)-methyl-amino]-1,3-dimethyl-1H-pyrazolo[3,4-b]pyridine-5-carboxylic acid hydroxyamide]
